Laboratory results as given in patent US10813933B2, “Therapeutic agent for lung cancer that has acquired EGFR-TKI resistance” (JAPANESE FOUNDATION FOR CANCER RESEARCH, priority 2016, dated 2020).
Read-outs that look alike come from different tables or passages of the source.

Assays:
[1] = test system: phosphorylation of EGFR and downstream signal transductions in T790M/del19 Ba/F3 cells; assay: Western blotting of EGFR phosphorylation and downstream signal; assay type: cell-based, mouse; conditions: 10, 100, 1000 nM; FIG. 2E
[2] = test system: phosphorylation of EGFR and downstream signal transductions in parental line PC9; assay: Western blotting of EGFR signal, PC9; assay type: cell-based, human; conditions: FIG. 10A, 10D
[3] = test system: phosphorylation of EGFR and downstream signal transductions in T790M/exon 19 deletion mutant expressing PC9 cell line; assay: Western blotting of EGFR signal, PC9 T790M; assay type: cell-based, human; conditions: FIG. 10B, 10D
[4] = test system: phosphorylation of EGFR and downstream signal transductions in triple-mutant expressing PC9 cell line; assay: Western blotting of EGFR signal, PC9 triple-mutant; assay type: cell-based, human; conditions: FIG. 10C, 10D
[5] = test system: EGFR gene mutation-positive case; conditions: cited from earlier work
[6] = test system: EGFR gene mutation-positive case; conditions: NEJ002; cited from earlier work

## COc1cc2ncnc(Nc3ccc(F)c(Cl)c3)c2cc1OCCCN1CCOCC1 [gefitinib]
[1]
  suppression of phosphorylation of EGFR and downstream signal (in words): the same effect as afatinib
[2]
  suppression of phosphorylation of EGFR and downstream signal (in words): also very strongly suppressed the phosphorylation
[3]
  suppression of phosphorylation of EGFR and downstream signal (in words): did not substantially demonstrate the phosphorylation suppression effect
[4]
  suppression of phosphorylation of EGFR and downstream signal (in words): neither of afatinib, osimertinib, or gefitinib demonstrated the suppression effect
[5]; WJTOG3405, gefitinib vs CDDP+DTX
  HR of PFS: 0.520
[5]; WJTOG3405
  PFS: 9.6 months
[6]
  PFS: 10.8 months
